The subject of test [1] is IL-6 secretion from 3T3-L1 adipocytes.
For test [2], the system named is p38 T180/Y182 phosphorylation in 3T3-L1 adipocytes.
Test [3] has as its system pTBK1 S172 in 3T3-L1 adipocytes.

For the molecule `CN(C)c1ccc2oc3nc(N)c(-c4nn[nH]n4)cc3c(=O)c2c1` [compound 170, 2-Amino-7-(dimethylamino)-3-(1H-tetrazol-5-yl)-5H-chromeno[2,3-b]pyridin-5-one], in test [1], the “IL-6 secretion normalized to the response to amlexanox (5)” value (shortened to “IL-6 secretion normalized”) came to 0.03. Also, the “p38 T180/Y182 phosphorylation normalized to the response to amlexanox (5)” value (“p38 T180/Y182 phosphorylation normalized” for short) in test [2] is listed as 0.00.

As for `Nc1nc2oc3ccc(N4CCOCC4)cc3c(=O)c2cc1-c1nn[nH]n1` [compound 171, 2-Amino-7-morpholino-3-(1H-tetrazol-5-yl)-5H-chromeno[2,3-b]pyridine-5-one], the “pTBK1 S172 phosphorylation normalized to the response to amlexanox (5)” value in test [3] was 0.39. The “IL-6 secretion normalized” value in test [1] worked out at 0.54. For the same molecule, the “p38 T180/Y182 phosphorylation normalized” value in test [2] was determined as 0.70.

`Nc1nc2oc3ccc(C4CCCCC4)cc3c(=O)c2cc1-c1nn[nH]n1` [compound 168, 2-Amino-7-cyclohexyl-3-(1H-tetrazol-5-yl)-5H-chromeno[2,3-b]pyridine-5-one]: the “p38 T180/Y182 phosphorylation normalized” value in test [2] came to 0.49.

Consider `Nc1nc2oc3ccc(C4=CCCCC4)cc3c(=O)c2cc1-c1nn[nH]n1` [compound 169, 2-Amino-7-(cyclohex-1-en-1-yl)-3-(1H-tetrazol-5-yl)-5H-chromeno[2,3-b]pyridine-5-one], for which the “IL-6 secretion normalized” value in test [1] is recorded as 0.00. For the same molecule, the “p38 T180/Y182 phosphorylation normalized” value in test [2] turned out to be 0.10.

Values taken from publication PMC6252132 (Bioorganic & medicinal chemistry, 2018).
